From PubChem BioAssay AID1362 (SRMLSC, 2008) come the findings set out here.

The structures appear in SMILES notation. The entries are a selection whose mix differs from that of the whole data set. Some results for these compounds are left out of this collection, so the calls shown say nothing about other tests. Activity calls are given as the source filed them. No stated cut-off is given here; in the data, active means inhibition above about 58%; inactive means the rest, inconclusive results apart; tested in S. cerevisiae.

This test can be described thus: growth inhibition of WT strain, primary screen, mitochondrial fusion inhibitor project, WT and mutant strains, chemical genetic (AID 1362). The following applies: mitochondrial fusion phenotypic screen, at 10 µM, hits give high values.
For orientation: inhibition means the relative decrease from the control value, in per cent. For `CC(C)N1C(=O)CC2(CCN(CCOC(=O)C(O)(c3ccccc3)c3ccccc3)CC2)C1=O`, the inhibition is inactive: 1.17%.
To `O=C(NCC1(N2CCCCC2)CCCCC1)c1cc([N+](=O)[O-])ccc1Cl` belongs inactive: 13.4%; to `C=CCN1CCN(CCOC(=O)C(O)(c2ccccc2)c2ccccc2)CC1`, inactive: -22.2%.
To `CCN1CCCC(OC(=O)C2(O)c3ccccc3C=Cc3ccccc32)C1` (centres undefined) belongs inactive: -6.04%; to `CN(C)C1CCCC1OC(=O)C(O)(c1ccccc1)c1ccccc1` (centres undefined), inactive: 1.05%; to `Cc1ccccc1C(=O)NCC1(N2CCCCC2)CCCCC1`, inactive: 1.06%.
For `COc1cccc(C(=O)NCC2(N3CCCCC3)CCCCC2)c1` the value was inactive: -2.45%; for `CN(C)c1cccc(C(=O)NCC2(N(C)C)CCCCC2)c1`, inactive: -11.6%; for `O=C(OC1CN2CCC1CC2)C(CO)(c1ccccc1)c1ccccc1` (centres undefined), inactive: 0.68%.
